Assay results from US9192667B2, “Method of treating cancer by administering CSF-1R antibodies and a TLR9 agonist” (Hoffmann-La Roche Inc., priority 2013, dated 2015).

Tests used:
[1] = tested on: M1 macrophages; experiment: Inhibition of human M1 macrophage differentiation and survival; assay type: cell-based
Method: (§1) Human monocytes were isolated from peripheral blood using the RosetteSep™ Human Monocyte Enrichment Cocktail (StemCell Tech.—Cat. No. 15028). Enriched monocyte populations were seeded into 96 well microtiterplates (2.5×10^4 cells/well) in 100 μl RPMI 1640 (Gibco—Cat. No. 31870) supplemented with 10% FCS (GIBCO—Cat. No. 011-090014M), 4 mM L-glutamine (GIBCO—Cat. No. 25030) and 1× PenStrep (Roche Cat. No. 1 074 440) at 37° C. and 5% CO2 in a humidified atmosphere. When 100 ng/ml huCSF-1 was added for 6 days to the medium, a clear differentiation into adherent, M2 macrophages with elongated morphology could be observed. When 100 ng/ml huGM-CSF was added to the medium for 6 days, a clear differentiation into adherent, M1 macrophages with round morphology could be observed. This differentiation was associated with the expression of certain markers such as CD 163 for M2 macrophages and CD80 or high MHC class II for M1 macrophages as assessed by flow cytometry. […] Pellets were resuspended in 1 ml staining buffer and cells counted in a Neubauer chamber. […] The Alexa 647 label was conjugated to the antibody by using the Zenon Alexa 647 mouse IgG labeling kit (Invitrogen Cat. No. Z25008) After a 1-hour incubation on ice cells were washed twice with staining buffer, resuspended and measured at a FACS Canto II. […]

[2] = tested on: M2 macrophages; experiment: Inhibition of human M2 macrophage differentiation and survival; assay type: cell-based
Method: as §1

[3] = antibody treatment 7 days, CellTiterGlo

## hMab 2F11-e7: humanized version of Mab 2F11; heavy chain variable domain SEQ ID NO: 39, light chain variable domain SEQ ID NO: 40; anti-human CSF-1R dimerization inhibitor
[1]; 100 ng/ml huGM-CSF, flow cytometry
  M1 macrophage differentiation: Exclusively M2 macrophage differentiation
[1]; [3]
  M1 macrophage survival: but not M1
[2]; 100 ng/ml huCSF-1, CD163 expression, flow cytometry
  M2 macrophage differentiation: could be inhibited
[2]; [3]
  M2 macrophage survival: is affected
